Patent US20110009379A1, “INDOLINONE COMPOUND” (ASTELLAS PHARMA INC., priority 2008, published 2011)

Tested on: RIN14B cells
Assay: Measurement of 5-HT secretion from RIN14B
Settings: 20 minutes at 37° C., relative to 300 μM allyl isothiocyanate = 100%, HBSS only = 0%
Method: In order to investigate whether TRPA1 is related to 5-HT release, 5-HT secretion promotion from RIN14B by a compound to be tested was measured.
The RIN14B cells cultivated in a petri dish were scraped using Phosphate buffered saline (PBS) containing 1 mM EDTA, distributed into 24 well plates, and cultivated for 2 days. As a medium, a medium in which 10% fetal bovine serum (ICN), 100 U/mL penicillin, and 100 μg/mL streptomycin was added to RPMI1640 (Invitrogen), was used. The cells were washed once with HBSS (Invitrogen) and added with 0.1% BSA and 10 μM fluoxetine (TOCRIS Co.), followed by dilution with the above HBSS, the prepared compound to be tested was added to RIN14B cells, followed by cultivation at 37° C., under 5% CO2 condition for 20 minutes. After cultivation, supernatant of cells was recovered, followed by freeze preservation. The content of 5-HT in the supernatant was measured by a commercial serotonin immunoassay kit (Beckman). 5-HT release promotion activation value (%) was evaluated as a relative value when the 5-HT release promotion value by 300 μM of allyl isothiocyanate was defined as 100%, and the 5-HT release promotion value by HBSS for dilution only was defined as 0%.

With `O=C1C(=Cc2nccs2)c2ccccc2N1Cc1ccccc1` (single isomer, unassigned) as the molecule, how does the “5-HT release promotion activation value” read?
The value was 41.2%.
